Values of other authors, collected in patent publication US20240142437A1, “METHODS TO PREVENT TERATOGENICITY OF IMID LIKE MOLECULES AND IMID BASED DEGRADERS/PROTACS” (DANA-FARBER CANCER INSTITUTE, INC., priority 2017, published 2024).

Conditions: typical dose of 200-400 mg, 25 mg, or 2 mg for thalidomide, lenalidomide, or pomalidomide; read-out: maximum plasma concentration (Cmax); cited from earlier work

Nc1cccc2c1CN(C1CCC(=O)NC1=O)C2=O (stereo not shown) [lenalidomide]
Cmax: ~2500 nM
